According to US20210317408A1, “METHODS AND COMPOSITIONS FOR GENETICALLY MODIFYING LYMPHOCYTES IN BLOOD OR IN ENRICHED PBMCS” (Exuma Biotech Corp., priority 2018, published 2021):

Tested on: PBMCs expressing eTag
Test: Elimination of eTag-expressing PBMCs exposed to Cetuximab in vitro
Type: cell-based
From the text: Others have shown that application of biotinylated-cetuximab to immunomagnetic selection in combination with anti-biotin microbeads successfully enriches T cells that have been lentivirally transduced with EGFRt-containing constructs from as low as 2% of the population to greater than 90% purity without observable toxicity to the cell preparation. […] In addition, others have shown that through flow cytometric analysis, EGFR was successfully utilized as an in vivo tracking marker for T cell engraftment in mice. […] Thus, EGFR may be used as a non-immunogenic selection tool, tracking marker, and suicide gene for transduced T cells that have immunotherapeutic potential. The EGFR nucleic acid may also be detected by means well known in the art.

## Cetuximab: commercially available anti-EGFR monoclonal antibody
  elimination of PBMCs expressing eTag: effective elimination mechanism
